Reference: ChEMBL document CHEMBL1201862, “PubChem BioAssay data set” (2004)
Where “and” joins values, the source holds several entries; their conditions need not be identical. Equal values may be shown once. Where a name gives a salt, the structure may show the parent alone. Calls of active or inactive are those of the source.

Assays:
Leucine aminopeptidase = biological target: T1, Leucine aminopeptidase (Plasmodium falciparum 3D7, UniProt Q8IL11); assay: P. falciparum M17LAP inhibitors, primary screen, biochemical, fluorogenic H-Leu-NHMec substrate, 1536-well (AID 1619); type: functional
T1 sequence (Q8IL11 whole entry): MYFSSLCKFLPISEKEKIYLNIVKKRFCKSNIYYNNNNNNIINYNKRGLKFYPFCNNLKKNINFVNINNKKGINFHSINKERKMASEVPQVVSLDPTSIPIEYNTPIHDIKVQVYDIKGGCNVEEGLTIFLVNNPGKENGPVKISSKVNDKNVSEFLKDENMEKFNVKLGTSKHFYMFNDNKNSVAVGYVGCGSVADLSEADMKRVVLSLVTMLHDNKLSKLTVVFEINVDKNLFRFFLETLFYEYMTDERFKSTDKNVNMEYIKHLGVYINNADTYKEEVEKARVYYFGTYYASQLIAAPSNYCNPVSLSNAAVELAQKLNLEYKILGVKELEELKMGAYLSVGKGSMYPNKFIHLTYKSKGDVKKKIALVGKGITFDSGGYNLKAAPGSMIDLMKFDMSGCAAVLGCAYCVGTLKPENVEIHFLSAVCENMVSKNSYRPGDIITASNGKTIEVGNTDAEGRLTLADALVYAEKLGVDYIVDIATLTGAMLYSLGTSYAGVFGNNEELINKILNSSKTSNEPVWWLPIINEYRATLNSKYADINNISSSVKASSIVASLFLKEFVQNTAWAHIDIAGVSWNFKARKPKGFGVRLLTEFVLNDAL

[1] = biological target: T2, Nucleotide-binding oligomerization domain-containing protein 1 (Homo sapiens, UniProt Q9Y239); assay: SAR analysis of NF-kB dependent luciferase using DAP as an inducer. [Related pubchem assays (depositor defined):AID1566, AID1575, AID1578, AID1579, AID1849, AID1852, AID2793]; type: functional
T2 sequence (Q9Y239 whole entry): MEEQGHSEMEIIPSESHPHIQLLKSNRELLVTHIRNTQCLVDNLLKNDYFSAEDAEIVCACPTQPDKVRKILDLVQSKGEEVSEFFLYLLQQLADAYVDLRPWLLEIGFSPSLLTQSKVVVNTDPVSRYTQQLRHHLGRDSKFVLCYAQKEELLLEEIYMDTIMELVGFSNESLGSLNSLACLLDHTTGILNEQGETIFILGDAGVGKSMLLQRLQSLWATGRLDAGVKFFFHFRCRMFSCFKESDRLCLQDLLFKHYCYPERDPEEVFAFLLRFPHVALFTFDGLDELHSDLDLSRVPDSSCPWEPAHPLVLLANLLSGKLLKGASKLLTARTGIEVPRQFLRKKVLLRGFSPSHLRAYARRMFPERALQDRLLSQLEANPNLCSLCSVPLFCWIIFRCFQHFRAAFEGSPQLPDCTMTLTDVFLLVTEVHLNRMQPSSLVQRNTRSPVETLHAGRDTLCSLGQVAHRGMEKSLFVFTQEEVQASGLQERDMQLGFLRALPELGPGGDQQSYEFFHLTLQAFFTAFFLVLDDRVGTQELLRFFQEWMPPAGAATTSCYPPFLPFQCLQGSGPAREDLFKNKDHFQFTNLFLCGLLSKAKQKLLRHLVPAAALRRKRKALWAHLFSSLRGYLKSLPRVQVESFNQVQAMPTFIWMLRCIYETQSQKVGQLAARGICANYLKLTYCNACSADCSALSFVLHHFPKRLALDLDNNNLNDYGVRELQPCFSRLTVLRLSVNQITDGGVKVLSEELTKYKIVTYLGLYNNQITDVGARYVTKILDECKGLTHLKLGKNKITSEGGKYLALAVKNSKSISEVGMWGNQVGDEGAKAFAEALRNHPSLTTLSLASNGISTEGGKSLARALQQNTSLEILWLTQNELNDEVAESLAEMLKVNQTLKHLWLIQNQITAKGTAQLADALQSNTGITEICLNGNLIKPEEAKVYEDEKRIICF

Interleukin-8 = biological target: T3, Interleukin-8 (Homo sapiens, UniProt P10145); assay: SAR analysis of GM-Tri-DAP induced IL-8 secretion in MCF-7/NOD1 cells - Set 2. [Related pubchem assays (depositor defined):AID1575, AID1578, AID2333]; type: functional, cell-based
T3 sequence (P10145 whole entry): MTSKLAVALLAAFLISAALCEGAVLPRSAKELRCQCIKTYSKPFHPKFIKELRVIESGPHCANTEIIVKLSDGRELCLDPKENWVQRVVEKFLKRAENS

[2] = biological target: T2, Nucleotide-binding oligomerization domain-containing protein 1; assay: SAR analysis of compounds that inhibit NOD1 - Set 3. [Related pubchem assays (depositor defined):AID1566, AID1575, AID1578, AID1849, AID1852, AID2333, AID2335, AID2466]; type: functional
[3] = HEK-293T viability loss after treatment – luminescence, T-cell screen hits, cytotoxicity control for TCR NF-kB inhibitor project, dose response (AID 489026); type: functional, cell-based;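 further: cells exposed to compound about 14 hours before the viability readout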
INS1 = assay: INS-1E survival protection against cytokine death – cell-based, luminescence, retest, dose response (AID 449756); type: functional; conditions: Rattus norvegicus;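 further: cell death triggered by IL-1 beta plus TNF-alpha plus IFN-gamma mixture; protective hits raise ATP signal compared with cytokine alone wells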
[4] = biological target: T4, Apoptotic protease-activating factor 1 (Homo sapiens, UniProt O14727); type: functional
T4 sequence (O14727 whole entry): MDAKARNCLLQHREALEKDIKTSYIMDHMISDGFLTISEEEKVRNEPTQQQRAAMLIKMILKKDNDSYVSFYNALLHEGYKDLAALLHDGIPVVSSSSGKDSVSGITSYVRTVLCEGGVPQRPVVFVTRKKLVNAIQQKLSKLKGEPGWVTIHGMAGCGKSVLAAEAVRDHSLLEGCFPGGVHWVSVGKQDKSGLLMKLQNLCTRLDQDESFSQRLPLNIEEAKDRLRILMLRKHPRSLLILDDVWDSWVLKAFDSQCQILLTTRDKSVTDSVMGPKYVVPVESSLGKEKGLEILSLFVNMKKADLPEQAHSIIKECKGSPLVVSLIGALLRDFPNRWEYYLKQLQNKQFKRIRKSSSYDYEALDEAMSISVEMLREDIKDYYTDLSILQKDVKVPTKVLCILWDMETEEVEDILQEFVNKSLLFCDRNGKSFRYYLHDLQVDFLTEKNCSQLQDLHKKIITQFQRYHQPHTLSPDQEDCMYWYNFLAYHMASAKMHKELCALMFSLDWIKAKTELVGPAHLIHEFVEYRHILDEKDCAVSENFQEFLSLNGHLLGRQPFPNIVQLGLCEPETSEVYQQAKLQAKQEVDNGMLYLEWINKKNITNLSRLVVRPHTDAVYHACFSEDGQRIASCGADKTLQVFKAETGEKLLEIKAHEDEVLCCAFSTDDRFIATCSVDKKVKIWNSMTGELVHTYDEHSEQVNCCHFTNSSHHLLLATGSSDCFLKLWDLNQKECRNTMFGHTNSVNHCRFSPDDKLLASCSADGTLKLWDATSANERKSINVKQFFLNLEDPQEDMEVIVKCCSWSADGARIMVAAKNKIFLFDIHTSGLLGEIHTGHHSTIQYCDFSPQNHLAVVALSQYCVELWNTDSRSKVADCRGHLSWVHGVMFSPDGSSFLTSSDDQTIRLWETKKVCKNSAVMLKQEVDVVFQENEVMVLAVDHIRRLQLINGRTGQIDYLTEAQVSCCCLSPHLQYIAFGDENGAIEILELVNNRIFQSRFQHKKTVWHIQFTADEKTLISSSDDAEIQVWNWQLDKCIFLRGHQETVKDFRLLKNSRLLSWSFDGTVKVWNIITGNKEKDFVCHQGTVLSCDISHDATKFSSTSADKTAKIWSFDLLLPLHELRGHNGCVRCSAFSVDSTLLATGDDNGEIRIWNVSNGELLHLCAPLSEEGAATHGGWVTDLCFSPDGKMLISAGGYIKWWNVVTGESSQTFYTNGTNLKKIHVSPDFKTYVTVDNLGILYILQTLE

For `O=C(CSc1n[nH]c(-c2ccccc2)n1)c1ccccc1`, the IC50 (Leucine aminopeptidase) was active: 47.5 µM.
In the case of `Cc1ccc(S(=O)(=O)n2c(N)nc3ccccc32)cc1`, the IC50 [1] is reported as active: 0.972 µM, the IC50 (Interleukin-8) is reported as active: 596 nM and active: 551 nM and the IC50 [2] is reported as active: 0.257 µM.
For `CC[n+]1c(/C=C/N(C)c2ccccc2)oc2ccccc21`, the IC50 [3] was inactive: > 80 µM and the AC50 (INS1) was active: 0.829 µM.
In the case of `CCCCC(CC)CNC(=N)NC(=N)NCCCCCCNC(=N)NC(=N)NCC(CC)CCCC` (configuration not stated) [ALEXIDINE HYDROCHLORIDE], the IC50 [4] is reported as active: 6.41 µM.
